The experiment deals with Proto-oncogene tyrosine-protein kinase Src (Homo sapiens, UniProt P12931). The experiment in a line: Concentration of compound required for inhibiting the binding of the fluorescent probe to the c-Src tyrosine kinase SH2 domain by 50%.

Sequences of proteins named here, by UniProt entry; tags and fusion partners are left off. A change or cut given only in a name is not applied to a line headed by its entry.
UniProt P12931: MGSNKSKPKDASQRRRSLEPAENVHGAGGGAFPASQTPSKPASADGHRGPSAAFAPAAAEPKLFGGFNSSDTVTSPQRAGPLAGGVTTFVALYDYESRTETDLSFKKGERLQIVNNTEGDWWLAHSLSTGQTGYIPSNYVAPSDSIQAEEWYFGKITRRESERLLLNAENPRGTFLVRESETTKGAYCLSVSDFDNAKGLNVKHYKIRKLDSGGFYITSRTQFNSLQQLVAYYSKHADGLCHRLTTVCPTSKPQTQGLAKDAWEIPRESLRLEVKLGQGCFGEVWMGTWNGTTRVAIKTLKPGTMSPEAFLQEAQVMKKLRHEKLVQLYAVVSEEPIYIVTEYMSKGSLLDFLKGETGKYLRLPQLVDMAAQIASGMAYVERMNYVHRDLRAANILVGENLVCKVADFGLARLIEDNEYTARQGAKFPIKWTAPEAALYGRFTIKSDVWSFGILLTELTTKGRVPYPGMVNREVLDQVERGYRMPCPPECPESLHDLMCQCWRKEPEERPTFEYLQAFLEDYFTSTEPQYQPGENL

The record followed here is ChEMBL document CHEMBL1148323, “Conformationally constrained peptide analogues of pTyr-Glu-Glu-Ile as inhibitors of the Src SH2 domain binding” (J Med Chem, 2004).

Each structure is given as a SMILES string. pIC50: −log10 of the molar value.

As usually defined, the pIC50 is the IC50 on a negative log10 scale, so that one unit is a factor of ten. For `CC[C@H](C)[C@H](NC(=O)[C@H](CCC(=O)O)NC(=O)[C@H](CCC(=O)O)NC(=O)[C@H](Cc1ccc(OP(=O)(O)O)cc1)NC(C)=O)C(=O)O`, the pIC50 is 5.19.
